Values of other authors as cited in patent publication US12303619B2, “Polymer implants” (Foundry Therapeutics, Inc., priority 2018, dated 2025).

Settings: PVP electrospun nanofiber with 2.5 wt % Tween 20

Question: With maraviroc as the substance, how does the “time to complete release of 28 wt % maraviroc” value read?
Answer: six
